Target: Jak1 (Homo sapiens, UniProt P23458)
Assay: Jak Biochemical HTRF Assay (Jak1)
Details: read-out: Jak1 activity, IC50 class, recombinant GST-tagged catalytic domain
From the text: Compounds of formula I can be prepared according to the general procedures described in the Schemes and Examples herein, using appropriate materials. Representative compounds of the present invention are exemplified herein below. The compounds exemplified are not, however, to be construed as limiting the scope of the invention in any manner. The examples further illustrate details for the preparation of the compounds of the present invention. Those skilled in the art will readily understand that known variations of protecting groups, of reagents, as well as of the conditions and processes of the following preparative procedures, can be used to prepare these compounds. It is also understood that whenever a chemical reagent is not commercially available, such a chemical reagent can be readily prepared by those skilled in the art by either following or adapting known methods described in the literature or described herein. […] Mass spectra (MS) were measured either by electrospray ion-mass spectroscopy (ESMS) or by atmospheric pressure chemical ionization mass spectroscopy (APCI). […]
The ability of compounds to inhibit the activity of Jak1, Jak2, Jak3, and Tyk2 was measured using a recombinant purified GST-tagged catalytic domain for each enzyme (Invitrogen Jak1 #M4290, […]) in an HTRF format biochemical assay. […] HTRF signal=10,000*665 nm reading/615 nm reading. […]

Chains of the proteins cited; added tags and fusions are not shown. Residues count along the entry.
UniProt P23458, 875-1153 limits assumed: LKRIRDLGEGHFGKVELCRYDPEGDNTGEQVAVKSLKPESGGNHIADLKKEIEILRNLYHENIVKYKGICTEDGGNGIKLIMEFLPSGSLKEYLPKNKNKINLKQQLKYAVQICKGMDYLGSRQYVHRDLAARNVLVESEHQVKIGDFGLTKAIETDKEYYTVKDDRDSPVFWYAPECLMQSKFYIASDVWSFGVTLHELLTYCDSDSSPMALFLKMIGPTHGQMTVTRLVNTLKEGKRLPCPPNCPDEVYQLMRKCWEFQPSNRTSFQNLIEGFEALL

| IC50 [nM] | Structure (SMILES) |
| --- | --- |
| 1 to 10 | O=C(OCc1ccccc1)N1CCCC2C1CCN2c1ncnc2[nH]ccc12 (single isomer, unassigned) [Enantiomer B] |
| 100 to 1000 | O=C(OCc1ccccc1)N1CCCC2C1CCN2c1ncnc2[nH]ccc12 (single isomer, unassigned) [Enantiomer A] |
